Measured values as given in ChEMBL document CHEMBL1147955, “Novel pyridyl-fused 3-amino chroman derivatives with dual action at serotonin transporter and 5-HT1A receptor” (Bioorg Med Chem Lett, 2007).

Protein sequences, listed by entry. Tags and fused reporters are not part of them.
UniProt P31652, whole entry: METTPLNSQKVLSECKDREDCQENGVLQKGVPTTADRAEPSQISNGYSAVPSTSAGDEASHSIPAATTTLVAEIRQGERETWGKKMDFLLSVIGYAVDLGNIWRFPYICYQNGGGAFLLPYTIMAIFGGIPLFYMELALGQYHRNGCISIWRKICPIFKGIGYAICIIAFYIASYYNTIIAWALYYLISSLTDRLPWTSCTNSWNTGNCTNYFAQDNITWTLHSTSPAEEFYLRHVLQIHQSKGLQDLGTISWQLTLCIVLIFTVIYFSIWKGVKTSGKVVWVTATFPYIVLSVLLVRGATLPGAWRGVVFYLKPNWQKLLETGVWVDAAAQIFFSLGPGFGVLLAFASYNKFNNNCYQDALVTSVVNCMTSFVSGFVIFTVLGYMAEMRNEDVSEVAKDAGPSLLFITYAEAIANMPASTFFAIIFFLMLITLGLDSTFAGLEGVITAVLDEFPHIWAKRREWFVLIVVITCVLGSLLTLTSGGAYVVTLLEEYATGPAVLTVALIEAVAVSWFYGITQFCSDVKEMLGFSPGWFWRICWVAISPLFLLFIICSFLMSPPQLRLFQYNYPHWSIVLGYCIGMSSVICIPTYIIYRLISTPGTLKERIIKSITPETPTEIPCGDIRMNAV

Biological target: Sodium-dependent serotonin transporter (Rattus norvegicus, UniProt P31652)
Assay: Displacement of [3H]paroxetine from 5HT reuptake site of rat cortical 5HTT

| Ki | SMILES |
| --- | --- |
| 1.3 nM | Fc1ccc2[nH]cc(CCCNC3COc4ccc5ncccc5c4C3)c2c1 (stereo in doubt; (+)-5) |
| 2.4 nM | Fc1ccc2[nH]cc(CCCNC3COc4ccc5ncccc5c4C3)c2c1 (racemic) |
| 5.1 nM | Fc1ccc2[nH]cc(CCCNC3COc4ccc5ncccc5c4C3)c2c1 (single isomer, unassigned; (-)) |
